Data from patent publication US7592188B2, “Live cell biosensors” (The Scripps Research Institute, priority 2004, dated 2009).

Test: Photophysical properties of dyes in various solvents (absorbance, emission, quantum yield)
Format: physicochemical
Settings: reactive forms
Description: Analytical grade reagents were purchased from major suppliers. […] Emission and excitation spectra were obtained using a Spex Fluorolog 2 spectrofluorometer at 23° C. […] Demas et al., J. Phys. […] All operations with dyes were performed under dim light. Flasks containing dyes were wrapped with aluminum foil.

With “Sodium 3-[(2E)-6-[({2-[(2,5-Dioxopyrrolidin-1-yl)oxy]-2-oxoethoxy}-acetyl)methylaminol]-2-[(2E,4Z)-4-(1,1-dioxido-3-oxo-1-benzothien-2(3H)-ylidene)but-2-enylidene]-1,3-benzothiazol-3(2H)-yl]propane-1-sulfonate [dye 2f]” the “ε × Φ” value (solvent BuOH) was 28000 and the “ε × Φ” value (solvent MeOH) was 9000.
